# Values of other authors as cited in patent US20130225483A1, “New Treatments of Hepatitis C Virus Infection” (priority 2010, published 2013).
# Conditions: in vivo; cited from earlier work
substance,measurement,value
"Peg-IFNα2a: pegylated form of interferon alfa 2a with 40 kDa branched PEG, commercially available from Roche","sustained serum concentrations, duration",168 h
